Tested on: HCV 3′ UTR
Assay: Direct UV cross-linking of HCV 3′ UTR with recombinant protein
Type: binding, Hepatitis C Virus
Conditions: rRPS5 2 and 4 pmol / 4 and 8 pmol
Experimental: UV cross-linking assay was performed as reported earlier ([17]). In UV cross linking assay α-^32P-labelled HCV IRES RNA (18–383) or HCV 3′ UTR was allowed to form complex with the purified recombinant ribosomal protein S5 (rRPS5) or purified 40S ribosome subunit in binding buffer (5 mM HEPES pH 7.6, 25 mM KCl, 2 mM MgCl2, 3.8% glycerol, 2 mM dithiothreitol, 0.1 mM EDTA) at 30°C for 15 min. These RNA–protein complexes were then irradiated with UV light (254 nm) for 25 min on ice. The excess RNA was digested with RNase A (Sigma) for 30 min at 37°C and UV cross-linked complex was resolved on SDS-polyacrylamide gel, which was dried before it was exposed to the phosphor-Imager cassette. In case of competition UV cross-linking experiments, RNA–protein complex formation was performed in presence of the un-labelled RNAs or peptides.
Human ribosomal protein S5 was expressed in BL21 DE3 and purified as mentioned earlier ([17]). In brief, Escherichia coli BL21 DE3 cells were transformed with the plasmid pET-28(a)-WTRPS5 or pET-28(a)RPS5-βhpt expressing the N terminally poly(His)‐tagged wild type or mutant human RPS5 protein. Protein expression was induced by 0.4 mM Isopropyl β-D-1-thiogalactopyranoside (IPTG) and incubated at 16°C for 22 h. […]

B1: La protein: recombinant La protein, positive control (protein, UniProt P05455 1-408, looked up)
Lupus La protein: MAENGDNEKMAALEAKICHQIEYYFGDFNLPRDKFLKEQIKLDEGWVPLEIMIKFNRLNRLTTDFNVIVEALSKSKAELMEISEDKTKIRRSPSKPLPEVTDEYKNDVKNRSVYIKGFPTDATLDDIKEWLEDKGQVLNIQMRRTLHKAFKGSIFVVFDSIESAKKFVETPGQKYKETDLLILFKDDYFAKKNEERKQNKVEAKLRAKQEQEAKQKLEEDAEMKSLEEKIGCLLKFSGDLDDQTCREDLHILFSNHGEIKWIDFVRGAKEGIILFKEKAKEALGKAKDANNGNLQLRNKEVTWEVLEGEVEKEALKKIIEDQQESLNKWKSKGRRFKGKGKGNKAAQPGSGKGKVQFQGKKTKFASDDEHDEHDENGATGPVKRAREETDKEEPASKQQKTENGAGDQ
- binding of recombinant protein to HCV 3′ UTR: able to bind to HCV 3′ UTR
